Source: US6475746B1, “Method of obtaining a composition comprising a 5-HT1D selective compound” (Synaptic Pharmaceutical Corporation, priority 1990, dated 2002)

Amino acid sequences for entries named in this document (tags omitted). A change or cut given only in a name is not applied to a line headed by its entry.
UniProt P11614, whole entry: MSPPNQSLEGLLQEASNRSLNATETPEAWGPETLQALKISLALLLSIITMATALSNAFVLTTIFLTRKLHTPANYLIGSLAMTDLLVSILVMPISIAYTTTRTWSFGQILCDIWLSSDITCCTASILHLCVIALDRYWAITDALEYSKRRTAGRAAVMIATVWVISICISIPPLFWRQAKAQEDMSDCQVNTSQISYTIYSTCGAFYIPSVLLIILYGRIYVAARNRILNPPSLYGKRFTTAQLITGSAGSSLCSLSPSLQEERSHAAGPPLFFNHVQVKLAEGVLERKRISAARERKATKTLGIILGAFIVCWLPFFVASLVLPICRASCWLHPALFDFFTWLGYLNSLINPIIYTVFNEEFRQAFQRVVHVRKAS
UniProt P28221: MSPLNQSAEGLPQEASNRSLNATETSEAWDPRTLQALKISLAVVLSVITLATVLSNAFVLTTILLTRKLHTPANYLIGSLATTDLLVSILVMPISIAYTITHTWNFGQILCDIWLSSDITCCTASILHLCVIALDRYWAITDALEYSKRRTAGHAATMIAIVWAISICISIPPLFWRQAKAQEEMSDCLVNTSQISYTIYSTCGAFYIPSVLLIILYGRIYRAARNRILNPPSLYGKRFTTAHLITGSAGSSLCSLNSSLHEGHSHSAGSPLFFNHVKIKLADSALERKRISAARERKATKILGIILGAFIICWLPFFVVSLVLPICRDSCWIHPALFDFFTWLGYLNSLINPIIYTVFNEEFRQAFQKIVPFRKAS
UniProt P28222, whole entry: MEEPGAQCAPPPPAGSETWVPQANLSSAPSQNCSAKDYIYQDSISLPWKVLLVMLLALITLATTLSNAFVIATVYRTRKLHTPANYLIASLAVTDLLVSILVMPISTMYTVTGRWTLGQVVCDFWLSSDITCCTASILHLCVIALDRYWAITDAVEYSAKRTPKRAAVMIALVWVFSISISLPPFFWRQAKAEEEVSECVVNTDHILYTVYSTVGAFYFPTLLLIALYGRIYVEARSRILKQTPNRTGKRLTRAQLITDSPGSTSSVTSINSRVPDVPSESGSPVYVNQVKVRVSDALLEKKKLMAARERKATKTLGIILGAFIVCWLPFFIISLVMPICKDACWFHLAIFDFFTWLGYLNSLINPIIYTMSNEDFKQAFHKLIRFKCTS

Experiments:
[1] = target: Cloned Canine 5-HT1D-1 (RDC4) (Canis lupus familiaris, UniProt P11614); assay: [3H]5-HT binding to cloned canine 5-HT1D-1 (RDC4) in transfected cell membranes; settings: read-out: Estimated equilibrium dissociation constants (Ki values); [3H]5-HT displacement; membranes of LM (tk−) cells stably transfected; Cheng-Prusoff
Cloned Human 5-HT1D-1 = Cloned Human 5-HT1D-1 (Homo sapiens, UniProt P28221); assay: [3H]5-HT binding to cloned human 5-HT1D-1 (gene 8-30-84) in transfected cell membranes; settings: read-out: Estimated equilibrium dissociation constants (Ki values); [3H]5-HT displacement; membranes of LM (tk−) cells stably transfected; Cheng-Prusoff
Cloned Human 5-HT1D-2 = Cloned Human 5-HT1D-2 (Homo sapiens, UniProt P28222); assay: [3H]5-HT binding to cloned human 5-HT1D-2 (gene 11) in transfected cell membranes; settings: read-out: Estimated equilibrium dissociation constants (Ki values)

Q: `COc1ccc2[nH]cc(CCN)c2c1` [5-Methoxytryptamine] was tested. Which Ki [1] did it give?
A: 31 ± 11 nM

Q: For `COc1ccc2[nH]cc(CCN(C)C)c2c1` [5-methoxy-DMT], which Ki (Cloned Human 5-HT1D-1) is on record?
A: 4.4 ± 0.6 nM

Q: How did the Ki (Cloned Human 5-HT1D-2) turn out when Corynanthine was run?
A: > 10 µM
